From PubChem BioAssay (Tox21)
The list shows a part of the results, in another mix than the full data. Inconclusive results are not listed. The source made the active and inactive calls. Unless noted, the call rests on the fitted dose curve; in most records, active means well fitted curve in the direction sought with a large enough effect in the repeat runs; inconclusive means weak or mixed curves; inactive means no such curve, though single readings can be large; an effect the other way counts as inactive or inconclusive.

Sequences of proteins named here, by UniProt entry; tags and fusion partners are left off.
UniProt P16473, whole entry: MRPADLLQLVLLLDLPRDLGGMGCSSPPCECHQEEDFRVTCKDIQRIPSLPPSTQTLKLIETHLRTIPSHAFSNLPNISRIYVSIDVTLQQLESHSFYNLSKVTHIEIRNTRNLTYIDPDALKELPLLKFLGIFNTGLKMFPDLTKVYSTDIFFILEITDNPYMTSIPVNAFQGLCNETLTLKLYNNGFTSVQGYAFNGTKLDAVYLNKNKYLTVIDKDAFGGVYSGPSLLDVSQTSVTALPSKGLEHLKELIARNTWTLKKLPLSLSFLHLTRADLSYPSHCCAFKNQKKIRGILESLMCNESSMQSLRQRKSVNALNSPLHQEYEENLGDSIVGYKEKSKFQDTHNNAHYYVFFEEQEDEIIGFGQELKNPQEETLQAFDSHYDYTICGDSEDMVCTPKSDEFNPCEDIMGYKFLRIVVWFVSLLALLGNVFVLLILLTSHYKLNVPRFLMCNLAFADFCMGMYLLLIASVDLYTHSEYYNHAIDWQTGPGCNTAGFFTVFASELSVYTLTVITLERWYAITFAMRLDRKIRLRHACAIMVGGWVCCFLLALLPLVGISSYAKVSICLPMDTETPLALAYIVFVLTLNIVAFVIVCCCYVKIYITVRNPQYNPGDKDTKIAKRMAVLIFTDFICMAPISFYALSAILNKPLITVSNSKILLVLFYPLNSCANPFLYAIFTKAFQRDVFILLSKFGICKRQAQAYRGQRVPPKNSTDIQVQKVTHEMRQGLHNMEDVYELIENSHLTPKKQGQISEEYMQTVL
UniProt O75469, whole entry: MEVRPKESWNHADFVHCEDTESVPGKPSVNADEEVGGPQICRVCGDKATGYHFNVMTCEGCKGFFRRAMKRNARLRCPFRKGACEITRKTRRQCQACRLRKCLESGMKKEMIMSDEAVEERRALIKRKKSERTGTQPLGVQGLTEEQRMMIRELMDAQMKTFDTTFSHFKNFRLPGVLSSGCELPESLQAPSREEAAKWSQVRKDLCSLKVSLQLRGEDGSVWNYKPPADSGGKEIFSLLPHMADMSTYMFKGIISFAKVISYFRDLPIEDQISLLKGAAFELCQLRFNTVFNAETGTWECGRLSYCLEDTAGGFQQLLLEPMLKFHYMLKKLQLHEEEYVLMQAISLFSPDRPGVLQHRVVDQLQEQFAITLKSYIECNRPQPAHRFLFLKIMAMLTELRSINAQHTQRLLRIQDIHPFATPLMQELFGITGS
UniProt P11511, whole entry: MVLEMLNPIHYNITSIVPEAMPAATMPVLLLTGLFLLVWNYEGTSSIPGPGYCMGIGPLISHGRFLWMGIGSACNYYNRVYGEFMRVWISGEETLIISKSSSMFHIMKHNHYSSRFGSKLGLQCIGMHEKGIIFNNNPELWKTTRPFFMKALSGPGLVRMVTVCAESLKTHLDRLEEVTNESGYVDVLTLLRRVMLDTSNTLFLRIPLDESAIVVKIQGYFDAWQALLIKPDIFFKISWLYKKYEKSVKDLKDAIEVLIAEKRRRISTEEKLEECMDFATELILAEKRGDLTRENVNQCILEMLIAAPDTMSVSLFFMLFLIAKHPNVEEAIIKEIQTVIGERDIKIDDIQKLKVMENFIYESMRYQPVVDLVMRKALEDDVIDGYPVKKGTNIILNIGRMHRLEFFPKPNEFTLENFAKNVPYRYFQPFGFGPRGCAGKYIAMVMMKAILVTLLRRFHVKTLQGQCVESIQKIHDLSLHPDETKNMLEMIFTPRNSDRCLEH

Assays:
[1] = qHTS assay to identify small molecule antagonists of the estrogen related receptor signaling pathway with the pleiotropic PPARgamma coactivator (PGC) from Tox21 10K library (AID 1224841; call rule not given here; further: potency means the concentration at half of the fitted maximal effect; actives are mostly falling curves and most rising ones were filed inactive; nearly all actives have a fitted effect of over 50% in size); conditions: PGC/ERR reporter cell line, ONE-Glo luciferase, 18 h
[2] = target: Nuclear receptor ROR-gamma (Homo sapiens) (UniProt P51449); assay: qHTS assay to identify small molecule antagonists of the retinoid-related orphan receptor gamma (ROR-gamma) signaling pathway (AID 1159521; further: potency means the concentration at half of the fitted maximal effect; nearly all actives have a fitted effect of over 50% in size); conditions: Tet-on RORgamma CHO cells, RORE-luciferase, 16 h
[3] = qHTS assay to identify small molecule antagonists of the retinoic acid receptor (RAR) signaling pathway (AID 1159552; further: potency means the concentration at half of the fitted maximal effect; nearly all actives have a fitted effect of over 50% in size); conditions: C3RL4 RARE luciferase reporter, retinol-stimulated, 6 h
How it was run: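 Overnight-plated C3RL4 reporter cells get compound, then retinol to 1 uM final; plates sit 6 hr at 37 C, 5% CO2. A luciferase reagent is added and light output recorded after 30 min at room temperature.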

[4] = qHTS assay to identify small molecule agonists of the constitutive androstane receptor (CAR) signaling pathway - cell viability counter screen (AID 1224836); further: potency means the concentration at half of the fitted maximal effect; nearly all actives have a fitted effect of over 45% in size
How it was run: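 Fluorescence from CellTiter-Fluor indicates live cells after 23 h exposure. The human hepatoma line expresses hCAR and a CYP2B6-2.2kb reporter. Incubation medium contains 0.75 uM PK11195 (final).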

[5] = qHTS assay to identify small molecule antagonists of the constitutive androstane receptor (CAR) signaling pathway - cell viability counter screen (AID 1224837); further: potency means the concentration at half of the fitted maximal effect; nearly all actives have a fitted effect of over 45% in size
How it was run: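 Cytotoxicity counter-screen: CellTiter-Fluor fluorescence after 23 h compound exposure (15-point qHTS) in double-stable HepG2-CYP2B6-hCAR cells, with 50 nM CITCO added.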

[6] = target: Thyrotropin receptor (Homo sapiens) (UniProt P16473); assay: qHTS assay to identify small molecule agonists of the thyroid stimulating hormone receptor (TSHR) signaling pathway (AID 1224843; calls by dose curve; further: potency means the concentration at half of the fitted maximal effect; nearly all actives have a fitted effect of over 45% in size); conditions: TSHR-HEK293 cells, cAMP HTRF, agonist mode, 30 min
[7] = qHTS assay to identify small molecule agonists of H2AX (AID 1224845; active means well fitted activation curve with a large enough effect in the signal ratio in the repeat runs, not every such curve was filed as active; the % refers to the signal ratio; further: potency means the concentration at half of the fitted maximal effect); conditions: CHO-K1 phospho-H2AX Ser139 HTRF, 3 h
How it was run: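 Wild-type CHO-K1 cells, plated overnight, exposed 3hr at 37C to 15 concentrations (0.76% DMSO final). Lysed, then HTRF anti-pH2AX (S139) cryptate and anti-H2AX-d2 antibodies, 24 hr room temperature; 665/620 nm emission read.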

[8] = qHTS assay to identify small molecule HDAC inhibitors (AID 1259364); conditions: HCT-116 HDAC-Glo I/II luminescence, 2 h; further: potency means the concentration at half of the fitted maximal effect; nearly all actives have a fitted effect of over 45% in size
How it was run: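 Luminescence read after 30 min room-temperature HDAC-Glo incubation measures cellular class I/II HDAC activity. Compounds were applied for 2 hr at 37 C to HCT-116 wild-type cells seeded the day before.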

[9] = qHTS assay to identify small molecule agonists of the sonic hedgehog signaling (Shh) pathway - cell viability counter screen (AID 1259366); conditions: NIH/3T3 Gli1-Luc viability, CellTiter-Fluor, 24 h; further: potency means the concentration at half of the fitted maximal effect; nearly all actives have a fitted effect of over 50% in size
How it was run: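 Stable Gli1-Luc NIH/3T3 clone, 2,000 cells/well. Compound exposure 24hr at 37C. Read-out: CellTiter-Fluor fluorescence.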

[10] = qHTS assay to identify small molecule antagonists of the sonic hedgehog signaling (Shh) pathway - cell viability counter screen (AID 1259367); conditions: NIH/3T3 Gli1-Luc viability, CellTiter-Fluor, 24 h; further: potency means the concentration at half of the fitted maximal effect; nearly all actives have a fitted effect of over 55% in size
How it was run: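 Tox21 library chemicals were tested on a Gli1-Luc NIH/3T3 clone (2,000 cells/well) stimulated by conditioned medium; viability was quantified as fluorescence from CellTiter-Fluor reagent added at 23 hr.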

[11] = qHTS assay to identify small molecule agonists of the androgen receptor (AR) signaling pathway in the presence of an antagonist - cell viability counter screen (AID 1259379); conditions: MDA-kb2 viability, CellTiter-Fluor, 16 h; further: potency means the concentration at half of the fitted maximal effect; nearly all actives have a fitted effect of over 25% in size
How it was run: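 Cytotoxicity counter-screen run in the same wells as the nilutamide-challenged (3.0 µM final) AR agonist assay in MDA-kb2 cells. Compounds tested at 15 concentrations for 16 h, 37 °C without CO2; CellTiter-Fluor fluorescence read.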

[12] = qHTS assay to identify small molecule agonists of the estrogen receptor beta (ER-beta) signaling pathway - cell viability counter screen (AID 1259380); conditions: ER-beta-bla HEK293T viability, CellTiter-Glo luminescence, 16 h; further: potency means the concentration at half of the fitted maximal effect; nearly all actives have a fitted effect of over 30% in size
How it was run: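 Cell viability counter screen: CellTiter-Glo luminescence (30 min, room temperature) measured in the same wells as the beta-lactamase readout, after 16 hr compound exposure at 37C of ER-beta-bla HEK293T cells in 2% charcoal-stripped FBS medium.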

[13] = qHTS assay to identify small molecule agonists of the estrogen receptor alpha (ER-alpha) signaling pathway in the presence of an antagonist - cell viability counter screen (AID 1259386); further: potency means the concentration at half of the fitted maximal effect; nearly all actives have a fitted effect of over 30% in size
How it was run: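 Compounds tested at 15 concentrations for 22 h at 37C alongside 10.0nM (final) ICI-182,780 antagonist, in VM7Luc4E2 cells grown in phenol red-free, charcoal-stripped medium. Viability read by CellTiter-Fluor fluorescence after 1 h reagent incubation.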

[14] = Caspase-3/7 induction in CHO-K1 cells by small molecules, qHTS cell viability counter screen (AID 1346979); further: potency means the concentration at half of the fitted maximal effect; nearly all actives have a fitted effect of over 35% in size
How it was run: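 Seeding: 1,500 CHO-K1 cells/well. Rest: 5hr, 37C. Treatment: compounds in DMSO, 16hr. Read: CellTiter-Fluor, 1hr, fluorescence.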

[15] = Caspase-3/7 induction in HepG2 cells by small molecules, qHTS cell viability counter screen (AID 1346981); conditions: CellTiter-Fluor fluorescence, 17 h; further: potency means the concentration at half of the fitted maximal effect; nearly all actives have a fitted effect of over 30% in size
How it was run: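 CellTiter-Fluor fluorescence measured viability in the same wells used for Caspase-Glo 3/7. HepG2 (wild type) at 2,000 cells/well were pre-incubated 5 hr, dosed, and given reagent at 16 hr, with 1 hr further at 37C.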

[16] = target: Nuclear receptor subfamily 1 group I member 2 (Homo sapiens) (UniProt O75469); assay: Human pregnane X receptor (PXR) small molecule agonists, qHTS assay (AID 1346982); conditions: PXR-Luc HepG2, CYP3A4 luciferase reporter, 24 h; further: potency means the concentration at half of the fitted maximal effect; nearly all actives have a fitted effect of over 35% in size
How it was run: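 Agonist mode: luminescence from ONE-Glo after 24 h compound exposure at 37C in HepG2 cells carrying hPXR-responsive CYP3A4 luciferase, plated in charcoal-stripped serum medium 5 h beforehand.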

[17] = qHTS assay to identify small molecule HDAC inhibitors - cell viability counter screen (AID 1259365)
How it was run: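 Cytotoxicity was gauged in wild-type HCT-116 cells after a brief 2hr treatment with DMSO-dissolved compounds at 37C and 5% CO2, using CellTiter-Glo luminescence developed for 30min at room temperature.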

[18] = qHTS assay to identify small molecule agonists of the progesterone receptor (PR) signaling pathway - cell viability counter screen (AID 1346799; calls by dose curve); conditions: PR-UAS-bla HEK293T viability, CellTiter-Glo luminescence, 16 h; at 92.4 µM (top of the series)
How it was run: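 Viability was scored by ATP luminescence (CellTiter-Glo, 30 min, room temperature) in the same wells used for the reporter readout, after 16 hr compound exposure of PR-UAS-bla HEK293T cells.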

[19] = qHTS assay for small molecules that induce genotoxicity in human embryonic kidney cells expressing luciferase-tagged ATAD5 - cell viability (AID 651634; calls by dose curve; further: potency means the concentration at half of the fitted maximal effect; nearly all actives have a fitted effect of over 25% in size); conditions: HEK293T ATAD5-luc cells viability, CellTiter-Fluor, 15.5 h
How it was run: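 Cytotoxicity counter-readout: after 15.5 hr compound treatment at 37C, live-cell protease activity in ATAD5-luciferase HEK293T cells measured by CellTiter-Fluor fluorescence, 30 min development at 37C.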

[20] = qHTS assay for identifying genotoxic compounds that show differential cytotoxicity against isogenic chicken DT40 cell lines with known DNA damage response pathways - Rev3 mutant cell line (AID 743014); conditions: chicken DT40 Rev3-/- viability, CellTiter-Glo, 40 h; further: potency means the concentration at half of the fitted maximal effect; nearly all actives have a fitted effect of over 55% in size
[21] = qHTS assay to identify small molecule antagonists of the androgen receptor (AR) signaling pathway using the MDA cell line - cell viability counter screen (AID 743041); conditions: MDA-kb2 viability, CellTiter-Fluor, 16 h; cells co-treated with R1881 androgen agonist
How it was run: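 Compound exposure lasted 16 h at 37C in MDA-kb2 AR-luc cells stimulated with R1881. Protease-based CellTiter-Fluor reagent was applied for the final 30 min and fluorescence measured.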

[22] = qHTS assay to identify small molecule antagonists of the estrogen receptor alpha (ER-alpha) signaling pathway using the BG1 cell line - cell viability counter screen (AID 743081)
[23] = qHTS assay to identify small molecule antagonists of the estrogen related receptor (ERR) signaling pathway from Tox21 library - cell viability counter screen (AID 1224834); further: nearly all actives have a fitted effect of over 30% in size; further: potency means the concentration at half of the fitted maximal effect
How it was run: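 CellTiter-Fluor fluorescence, read after 30 min at 37 C, measures viability of ERR cells. Cells plated at 2,000/well and incubated 6 h before pin-tool compound addition, then exposed 17.5 hours at 37 C.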

[24] = A CellTox Green Cytotoxicity Assay to monitor cytotoxicity in HepG2 cells - 40 hour (AID 1224879); further: on the % scale 0 is the no-effect control and ±100 the full control effect; nearly all actives have a fitted effect of over 40% in size
How it was run: (§1)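 Real-time cytotoxicity: fluorescence of a cell-impermeant cyanine dye binding DNA of dead HepG2 cells, measured repeatedly (0–40 h) during compound exposure at 37 C. Cells seeded 600/well with reagent, dosed after 5 h.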

[25] = A CellTox Green Cytotoxicity Assay to monitor cytotoxicity in HepG2 cells - 0 hour (AID 1224882); conditions: CellTox Green fluorescence; at 76.8 µM (top of the series); further: on the % scale 0 is the no-effect control and ±100 the full control effect; nearly all actives have a fitted effect of over 35% in size
How it was run: as §1

Aromatase (Homo sapiens) = Aromatase (Homo sapiens) (UniProt P11511); assay: qHTS assay to identify aromatase inhibitors (AID 743083); further: on the % scale 0 is the no-effect control and ±100 the full control effect; nearly all actives have a fitted effect of over 55% in size
[26] = qHTS assay to identify aromatase inhibitors - cell viability counter screen (AID 743084);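 further: cells stimulated with testosterone during compound exposure; on the % scale 0 is the no-effect control and ±100 the full control effect; nearly all actives have a fitted effect of over 55% in size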
[27] = qHTS RealTime-Glo MT Cell Viability Assay in HepG2 cells - 32 hour (AID 1224877)
How it was run: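 HepG2 suspension premixed with RealTime-Glo reagents is plated at 600 cells per well and left 5 h at 37 C/5% CO2. Compounds in DMSO then go in, and bioluminescence reflecting viable cell number is recorded over 40 h.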

[28] = qHTS assay to identify small molecule antagonists of the androgen receptor (AR) signaling pathway using the MDA cell line in the presence of 0.5 nM R1881 - cell viability counter screen (AID 1259242)
How it was run: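 Live-cell protease activity was measured by CellTiter-Fluor fluorescence after 30 min. Before that, MDA-kb2 MMTV-luciferase cells had 16 hr at 37C without CO2, exposed to test compounds and 0.5 nM R1881 final.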

O=C(Cl)Oc1ccccc1
active: Potency [1] 54.5 µM

O=[N+]([O-])c1ccc([N+](=O)[O-])cc1
active: Potency [2] 61.1 µM | Potency [3] 30.6 µM | Potency [4] 61.1 µM | Potency [5] 54.5 µM | Potency [6] 61.1 µM | Potency [7] 101 µM | Potency [8] 54.5 µM | Potency [9] 54.5 µM | Potency [10] 54.5 µM | Potency [11] 61.1 µM | Potency [12] 43.3 µM | Potency [13] 61.1 µM | Potency [14] 43.3 µM | Potency [15] 54.5 µM | Potency [16] 43.3 µM

COP(C)(=O)OC
inactive: Potency [17] | activity change, negative = cytotoxicity [18] -4.76%

Cc1cc([N+](=O)[O-])c(O)c([N+](=O)[O-])c1
active: Potency [19] 30.9 µM | Potency [20] 49.1 µM | Potency [21] 49.1 µM | Potency [22] 30.9 µM | Potency [12] 30.9 µM | Potency [13] 49.1 µM

CCOP(=O)(CC)Oc1ccc([N+](=O)[O-])cc1 (stereo not drawn)
inactive: Potency [24]
active: Potency [23] 11.9 µM

CCN(CC)CCCl
inactive: Potency [23] | cytotoxicity [25] 1.06%
active: Potency [10] 12.4 µM

O=[N+]([O-])[O-].[NH4+]
inactive: Potency (Aromatase (Homo sapiens)) | Potency [26] | Potency [27] | Potency [28]
